According to BindingDB's records for doi:10.1021/jm031026e (Universit&#224, 2004):

Biological target: Sigma non-opioid intracellular receptor 1 (Cavia porcellus) (UniProt Q60492)
Assay: In vitro binding affinity at opioid sigma-1 receptor in guinea pig brain membranes by (+)-[3H]pentazocine displacement.

Ki | SMILES
1.54 nM | COc1cccc2c1CCCC2CCCCN1CCN(C2CCCCC2)CC1 (configuration not stated) [1-cyclohexyl-4-(4-(5-methoxy-1,2,3,4-tetrahydronaphthalen-1-yl)butyl)piperazine]
5.4 nM | Oc1cccc2c1CCCC2CCCN1CCN(C2CCCCC2)CC1 (configuration not stated) [5-[3-(4-Cyclohexyl-piperazin-1-yl)-propyl]-5,6,7,8-tetrahydro-naphthalen-1-ol]
